By UniProt entry, the sequences of proteins in these tests, tags left out. Residues count along the entry.
UniProt Q9GZT9, 181-402: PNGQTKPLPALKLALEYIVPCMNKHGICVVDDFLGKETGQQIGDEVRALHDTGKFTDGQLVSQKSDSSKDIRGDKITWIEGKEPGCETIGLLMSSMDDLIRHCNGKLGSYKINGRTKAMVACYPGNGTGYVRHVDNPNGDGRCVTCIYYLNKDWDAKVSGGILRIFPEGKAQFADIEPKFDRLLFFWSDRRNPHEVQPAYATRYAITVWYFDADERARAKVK

According to publication PMC8253137, “Microbiota-derived butyrate is an endogenous HIF prolyl hydroxylase inhibitor” (Gut Microbes, 2021):

Biological target: PHD2_181-402 (Homo sapiens, UniProt Q9GZT9)
Test: Km determination of 2-OG for PHD2_181-402 (succinate detection)
Assay type: biochemical
Conditions: 100 nM PHD2_181-402, 2-OG 625 nM to 40 μM, 10-minute reaction, Michaelis-Menten fit

Km: 1200 nM
SMILES: O=C(O)CCC(=O)C(=O)O [2-OG, 2-oxoglutarate]
